scFv variants of Ab-14 (heavy chain) against a SARS-CoV-2 spike peptide

Data: MIT Lincoln Laboratory AlphaSeq set, Engelhart et al. 2022, doi:10.1038/s41597-022-01779-4, as distributed in FLAb.

Binding partner: SARS-CoV-2 spike HR2 peptide, sequence PDVDLGDISGINAS.

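The starting antibody came from a phage panning campaign against this peptide. Library AAYL49 holds single substitutions and randomly drawn double and triple substitutions in the CDRs. In AlphaSeq, yeast of one mating type display the scFv and yeast of the other type display the target. After mating in shaken culture at 30 °C for 16 h, diploids were selected and their barcode pairs sequenced. Read counts were normalised to the haploid input and turned into Kd by a linear fit to BCL2-family pairs of known affinity, for each replicate. The assay was run in three technical replicates.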

Parent: Ab-14, a human scFv built as VH, the linker GGGGSGGGGSGGGGS, VL. Only the CDRs of the heavy chain vary.
VH: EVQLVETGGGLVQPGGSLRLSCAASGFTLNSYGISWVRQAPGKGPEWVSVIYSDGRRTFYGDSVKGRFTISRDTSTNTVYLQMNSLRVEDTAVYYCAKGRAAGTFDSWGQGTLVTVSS
VL: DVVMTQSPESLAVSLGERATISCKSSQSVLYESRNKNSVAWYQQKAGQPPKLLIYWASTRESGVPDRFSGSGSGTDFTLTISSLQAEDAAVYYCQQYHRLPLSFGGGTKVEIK

The parent's heavy chain CDRs are GFTLNSYGIS, VIYSDGRRTFYGDSVK, GRAAGTFDS; each variant's own CDRs replace them letter for letter.
Every variant below is changed at R57 of the VH (sequential numbering).
Each Kd is an estimate from the mating assay, the geometric mean of the replicates in which the pair was seen; lower is stronger.
"nd" marks a missing value. The strain was present, yet no cells mated with the target were sequenced in any replicate, which points to weak or no binding.
The list is sorted by this average, lowest first, undetected variants last.
Empty control strains, which show no peptide, gave a signal in 15% of pairings with library AAYL49; the median was 11 µM and 95% of these signals were weaker than 680 nM. No background was subtracted. Also given: how often the same scFv was detected with the empty control strains.

For GFTLNSYGIS | VIYSDGRKTFYTNSVK | GRAAGTFDS, the assay gave 50 nM (3 of 3 replicates; controls 4 of 9). Variant GFTLNSYGIS | VIYSDGRQTFYGDSVK | SRAMGTFDS showed 340 nM (2 of 3 replicates; controls 0 of 9). Variant GFTLNSNGIS | DIYSDGRKTFYGDSVK | GRAAGTFDS gave 460 nM (1 of 3 replicates; controls 1 of 9). For GFTLNEYGIS | VIYSDIRHTFYGDSVK | GRAAGTFDS, the assay gave 4.9 µM (1 of 3 replicates; controls 2 of 9). With GFTLNSYPIS | VIYSAGRCTFYGDSVK | GRAAGTFDS the result was 6.4 µM (3 of 3 replicates; controls 2 of 9). With GFTLNSYGIS | VIYDDGRWTFYGDSVK | GRAAGTFDS the result was 8.5 µM (1 of 3 replicates; controls 0 of 9). With GFTLNSYGIS | VIYSDGRVTFYGDEVK | GRAAGTFDS the result was 9.6 µM (1 of 3 replicates; controls 3 of 9).

Variant GFTLNSYGIS | VIYSDGRQTFYGDSVK | GRAAGTFFS showed 9.9 µM (2 of 3 replicates; controls 2 of 9). Variant GFTLPMYGIS | VIYSDGRQTFYGDSVK | GRAAGTFDS showed 11 µM (3 of 3 replicates; controls 4 of 9). Variant GFTLNSYGIS | VIYSDGRCTFYGDSVK | IRANGTFDS gave 12 µM (3 of 3 replicates; controls 2 of 9). Variant GETLNSYGKS | VIYSDGRWTFYGDSVK | GRAAGTFDS gave 13 µM (1 of 3 replicates; controls 0 of 9). For GFTLNSYWIS | VIYSDGRVTFYGDSVK | RRAAGTFDS, the assay gave 17 µM (1 of 3 replicates; controls 1 of 9). Variant GFTLNSYGIS | VIYSDGRATFYGDSCK | GRAAGTFDR showed 30 µM (3 of 3 replicates; controls 4 of 9). With TFTDNSYGIS | VIYSDGRDTFYGDSVK | GRAAGTFDS the result was 32 µM (1 of 3 replicates; controls 1 of 9).

Variant DFTLNSYGIS | VIYSDGRSTFYGDSVK | GRAAGTWDS gave 76 µM (2 of 3 replicates; controls 3 of 9). With GFTLNSYGIS | VIPSDGRWTFYGDSVK | GRAAGTFDY the result was 100 µM (1 of 3 replicates; controls 3 of 9). With GFTLNSYGIS | VIYGDMRSTFYGDSVK | GRAAGTFDS the result was 160 µM (1 of 3 replicates; controls 1 of 9). For GFGLNSYGIS | VPYSDGRKTFYGDSVK | GRAAGTFDS, the assay gave nd (0 of 3 replicates; controls 0 of 9). Variant GFTLNSYGIS | VIYSDGRKTFYGDSNK | FRAAGTFDS gave nd (0 of 3 replicates; controls 2 of 9). For MFTLNSYGIS | VIYSDGRWTFYGDSVK | GRAPGTFDS, the assay gave nd (0 of 3 replicates; controls 0 of 9). For GFTLNSYGIS | VIYSDGRETWYGMSVK | GRAAGTFDS, the assay gave nd (0 of 3 replicates; controls 0 of 9).

With GFTLNSYIIS | VIYSDGRPAFYGDSVK | GRAAGTFDS the result was nd (0 of 3 replicates; controls 0 of 9). Variant GFTLNSYGIQ | MIYSDGRITFYGDSVK | GRAAGTFDS showed nd (0 of 3 replicates; controls 0 of 9). Variant GFTLNSYGIW | VIYSDGRSTFYGDSVK | GRAAGTLDS gave nd (0 of 3 replicates; controls 1 of 9). With GFTLNSYGIS | VIYSDGRVTFYGDSVK | GSAAGTFDH the result was nd (0 of 3 replicates; controls 1 of 9). Variant GFTLNSYGPS | VIYSDGRGTFYGDSVK | GRAAGFFDS showed nd (0 of 3 replicates; controls 0 of 9). With GFTLNSYGIS | VIYSDGEYTFYGDSVK | GRAAGTFDS the result was nd (0 of 3 replicates; controls 0 of 9). For GFTLNSYGIS | VIYSDGRKPFYYDSVK | GRAAGTFDS, the assay gave nd (0 of 3 replicates; controls 0 of 9).

Variant GFTLNSYGIS | VIYSDERWTFYGCSVK | GRAAGTFDS gave nd (0 of 3 replicates; controls 0 of 9). With LFTLNSYGKS | VIYSDGRWTFYGDSVK | GRAAGTFDS the result was nd (0 of 3 replicates; controls 0 of 9). For GFTLNSYGIS | VIYEDGRETFYGYSVK | GRAAGTFDS, the assay gave nd (0 of 3 replicates; controls 4 of 9). Variant GFTLNSYGIS | VIYSDGRYTFYGDSVK | GRAAGTFDS showed nd (0 of 3 replicates; controls 2 of 9). Variant GFTLNSYGIS | VISSDGRYTFYGDSVK | GRAAGTFDS gave nd (0 of 3 replicates; controls 0 of 9). Variant GFTLNSYGIS | VIYSDGRPTFYGDSVK | GRAAGTADF gave nd (0 of 3 replicates; controls 0 of 9). With GFTLNSYGIS | VIYSDGRKTFYGDSVK | GRAFGTFDT the result was nd (0 of 3 replicates; controls 3 of 9).

With GFTLNSYGIS | VIYSDGRGTFYGDSNK | GRAAGTFPS the result was nd (0 of 3 replicates; controls 0 of 9).

For reference, 3 entries of the list once more:

The variant GFTLNSYGIS | VIYSDERWTFYGCSVK | GRAAGTFDS showed nd (0 of 3 replicates; controls 0 of 9).
The variant GFTLNSYGIS | VIYSDGRKTFYGDSNK | FRAAGTFDS showed nd (0 of 3 replicates; controls 2 of 9).
The variant GFTLNSYGIS | VIYSDGRQTFYGDSVK | GRAAGTFFS showed 9.9 µM (2 of 3 replicates; controls 2 of 9).

Parent in this assay: reference entry 4.4 nM, copy in this library 13 µM (one replicate of three).